From US4992418A, “Superactive human insulin analogue-[10-Aspartic Acid-B]Human Insulin” (Mount Sinai School of Medicine, priority 1987, dated 1991)

Conditions: reversed-phase HPLC, two chromatographic conditions

Question: For [10-Aspartic acid-B] human insulin, which “Polarity compared with natural insulin” value is on record?
Answer: The value was “more apolar molecule”.
